PubChem BioAssay AID824 (SRMLSC, 2007)
This is a selection; strong and weak results do not stand in their true shares. Results filed as inconclusive are left out. Active and inactive are the calls of the source.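 The calls were made as follows: active = viability at or below 27.92% in each of two runs, the all-compound median minus 4 SD; inconclusive = no clear call, values can overlap the other calls; inactive = the rest.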

Assay: growth suppression of PTEN-deleted HCT116, pilot screen, cell-based, HCT116 clonal line, CellTiter-Glo (AID 824);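 also: 0% = 20 µM Hyamine control and 100% = vehicle cell control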
Details: 60 h, at 10 µM, stronger effect = lower value

With `Fc1ccccc1NC1CCN(Cc2ccccc2)CC1` as the molecule, how does the viability read?
The viability was inactive: 88.7%.
